The values that follow are results of earlier work, collected in patent publication US10294298B2, “Human PAC1 antibodies” (AMGEN INC., priority 2013, dated 2019).

The chains behind the UniProt entries cited, without tags or fusion partners. Residues count along the entry.
UniProt P32241, 31-457: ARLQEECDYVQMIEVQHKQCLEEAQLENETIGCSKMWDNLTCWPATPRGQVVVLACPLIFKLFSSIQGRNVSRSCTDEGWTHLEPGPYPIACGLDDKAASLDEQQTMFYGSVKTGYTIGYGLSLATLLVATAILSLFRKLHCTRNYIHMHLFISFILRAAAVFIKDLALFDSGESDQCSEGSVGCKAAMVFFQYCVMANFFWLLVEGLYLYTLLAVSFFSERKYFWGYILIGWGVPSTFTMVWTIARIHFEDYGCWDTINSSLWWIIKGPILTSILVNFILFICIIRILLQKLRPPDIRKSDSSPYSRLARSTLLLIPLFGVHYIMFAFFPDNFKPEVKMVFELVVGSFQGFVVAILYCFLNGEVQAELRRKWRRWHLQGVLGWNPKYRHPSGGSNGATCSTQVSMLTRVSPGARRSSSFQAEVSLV

By EC50 is commonly meant the concentration giving half of the maximal effect.

The target in the data set is VPAC1 (Homo sapiens, UniProt P32241). To be noted: receptor agonist; background table.

With “VIP: vasoactive intestinal polypeptide, endogenous agonist”, the EC50 was 20 pM.
